Only a part is listed here, and it is no random draw. Inconclusive results are not listed. Activity calls are given as the source filed them. The call rests on the fitted dose curve; in most records, active means well fitted inhibition curve with a large enough effect in the polarisation, with a control signal flat (not every such curve was filed as active); inconclusive means small, poorly fitted or top-dose-only effect, or effect the other way, or a change in a side signal; inactive means no such curve, though single readings can be large or run the other way; the % refers to the polarisation.

Consider 1 molecule from PubChem BioAssay AID2782 (National Center for Advancing Translational Sciences (NCATS), 2010).

The nature of the assay: Confirmation of Inhibitors Targeting the Menin-MLL Interaction in MLL Related Leukemias: Competition With Texas Red Labeled MLL-derived Mutant Peptide. The settings on record: fluorescence polarization, Texas Red MLL peptide displacement; at 94.6 µM (top of the series).
On the % scale 0 is the no-effect control and ±100 the full control effect.

Regarding `O=[As](O)(c1cccs1)c1cccs1`, the FP change, negative = inhibition was inactive: -3.79%.
